Measurements: US6403104B1, “Hapten-conjugated mammalian cells and methods of making and using thereof” (Thomas Jefferson University, priority 1999, dated 2002)

Test system: metastatic melanoma
Test: Immunotherapy of patients with metastatic melanoma, clinical and immunological response
Assay type: in vivo, human
Conditions: similar experiment in metastatic melanoma patients
Protocol: Patients with metastatic melanoma can be treated using an immunotherapy regimen with the following components: 1) vaccine consisting of autologous tumor cells conjugated to DNP; and 2) low dose cyclophosphamide pretreatment. Patients are evaluated to determine whether tumor regression occurs, to monitor tumor inflammatory responses, and to measure delayed type hypersensitivity response to autologous melanoma cells, DNFB (the form of DNP used for skin sensitization), DNP-conjugated autologous lymphocytes, diluent (Hanks solution), purified protein derivative (PPD), and recall antigens (candida, trichophyton, and mumps). Patients who are considered to be deriving benefit (clinical or immunological) from the therapy are continued in the immunotherapy regimen. Subsequent vaccines may be given without cyclophosphamide.

Interleukin 2 linked to polyethylene glycol: Interleukin 2 linked to polyethylene glycol, tried in a similar immunotherapy experiment
effectiveness in immunotherapy regimen: not be effective
